Results published in US20260174721A1, “AGENT FOR RESTORING METAL HOMEOSTASIS” (Oxford Antibiotic Group GmbH, priority 2022, published 2026).

How the values were obtained:
Format in all cases: in vivo
[1] = tested on: transgenic C. elegans strain CL2659; assay: β-amyloid test system: delay of paralysis in transgenic C. elegans strain CL2659 (Alzheimer testing); conditions: Caenorhabditis elegans, 48 h, read-out: Alzheimer: concentration range in which a delay in paralysis was observed, CL2659 stage L3 larvae, 48 hours; tested at 1 mg/ml, 100 μg/ml, 10 μg/ml; — = no effect even at 1 mg/ml
Experimental: For this purpose, stage L3 worm larvae were used at a density of 10-20 worms per well. The expression of β-amyloid in the muscle cells was induced by increasing the temperature, and the associated paralysis was recorded at regular intervals until the end of the test after 48 hours.
(§1) For this purpose, the above substances were tested at concentrations of 1 mg/ml, 100 μg/ml, and 10 μg/ml in comparison with quercetin as a […] control.

[2] = tested on: transgenic C. elegans strain NL5901; assay: α-synuclein test system: reduction of α-synuclein-GFP expression in transgenic C. elegans strain NL5901 (Parkinson testing); conditions: Caenorhabditis elegans, read-out: Parkinson: concentration range in which a reduction in α-synuclein expression was detectable, NL5901, GFP readout 24 to 48 hours; tested at 1 mg/ml, 100 μg/ml, 10 μg/ml; — = no effect even at 1 mg/ml
Experimental: (§2) The same substances as above were tested in a 96-well procedure in the initially mentioned screening assay using the nematode Caenorhabditis elegans (Pretsch et al., see above) in a standardized α-synuclein test system using the transgenic C. elegans strain NL5901 for their potential suitability as an agent for treating Parkinson's disease. This worm strain expresses human α-synuclein bound to green fluorescent protein (GFP) in all muscle cells. GFP labeling allows a direct detection of expressed protein levels using a multiplate reader for 24 to 48 hours.
For this purpose, the substances were again tested at concentrations of 1 mg/ml, 100 μg/ml, and 10 μg/ml, but this time in comparison to the initially mentioned Parkinson therapeutic agent levodopa as a control.

[3] = tested on: Caenorhabditis elegans; assay: C. elegans nematode assay, overall rating over the Alzheimer and Parkinson tests; conditions: read-out: Score, rating from the effective concentration in both tests
Experimental: The substances (1) to (41) and (101) to (108), prepared in the above synthesis examples or purchased, were tested for their potential suitability as an agent for treating Alzheimer's disease in a 96-well procedure in the initially mentioned screening assay using the nematode Caenorhabditis elegans (Pretsch et al., see above) in a standardized β-amyloid test system using the transgenic C. elegans strain CL2659. For this purpose, stage L3 worm larvae were used at a density of 10-20 worms per well. The expression of β-amyloid in the muscle cells was induced by increasing the temperature, and the associated paralysis was recorded at regular intervals until the end of the test after 48 hours.
as §1
as §2, with “This worm strain expresses human α-synuclein bound to green fluorescent protein (GFP) in all muscle cells.” left out, “hours. […]” for “hours.”

Measured: minimal effective concentration

O=C(O)CC(=O)OC12CC3CC(CC(C3)C1)C2 [(8), malonic acid adamantan-1-yl ester]
> 100 µg/mL: all assays above
